# Measured affinities in a library of Ab-91 heavy chain variants

Reference: Engelhart et al. 2022, doi:10.1038/s41597-022-01779-4. File: FLAb, binding data.

All variants were tested on one target, the spike HR2 peptide PDVDLGDISGINAS (SARS-CoV-2).

Parent scFv Ab-91: VL joined to VH by a 15-residue (Gly4Ser)3 linker. Changes lie in the heavy chain CDRs alone.
VL: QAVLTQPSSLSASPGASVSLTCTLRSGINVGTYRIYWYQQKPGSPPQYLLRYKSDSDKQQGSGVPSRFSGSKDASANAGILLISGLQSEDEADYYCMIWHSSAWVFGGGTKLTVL
VH: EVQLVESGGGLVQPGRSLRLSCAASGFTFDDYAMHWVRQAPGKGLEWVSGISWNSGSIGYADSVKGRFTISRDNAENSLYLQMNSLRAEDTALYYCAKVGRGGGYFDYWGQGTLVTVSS

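In library AAYL51, one, two or three CDR residues were substituted; doubles and triples were drawn at random. Affinity was read by AlphaSeq, a pooled yeast mating assay with surface-displayed partners. Mating (16 h, 30 °C) was followed by selection of diploids and sequencing of their barcodes. Each replicate has its own calibration line, from reference interactions of the BCL2 family. Each pool was mated in three replicate cultures.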

Positions count from residue 1 of the parent VH; M34G puts G in place of M. Values are log10 of the apparent Kd in nM; lower means stronger binding. Replicates are averaged; those with no signal do not enter the mean. An entry "no signal" has no value in the source: the pair was not observed among the diploids in any replicate. This suggests poor binding but is not conclusive. Parent in this assay: reference entry 1.86, copy in this library 0.88. Empty control strains, which show no peptide, gave a signal in 21% of pairings with library AAYL51; the median was 4.54 and 95% of these signals were weaker than 3.26. No background was subtracted.

changes	mean log10 Kd (nM)	replicates with signal
M34G G56E A61H	no signal	0 of 3
A33T S52W G59Y	5.20	1 of 3
F29A A33M F106R	5.11	1 of 3
S52G V64Y G104Y	no signal	0 of 3
D30N Y60W Y108G	2.76	3 of 3
G56M G59C R101D	4.79	1 of 3
T28W H35A G59Q	3.62	1 of 3
D30W H35A D107C	5.21	1 of 3
G50E Y60S V64G	5.61	1 of 3
A33H G50S V99I	no signal	0 of 3
A33C H35N D62C	4.83	1 of 3
D31N G56H Y108C	0.82	3 of 3
A61T V64D G104H	no signal	0 of 3
G102T G104S	2.96	3 of 3
F29H A33S G56H	3.75	1 of 3
G26W W53E G104S	no signal	0 of 3
H35L A61H F106L	no signal	0 of 3
S57Y R101E G104Y	3.66	2 of 3
A61R Y105T Y108S	no signal	0 of 3
Y32C W53H	2.40	3 of 3
N54Q G56I Y108I	no signal	0 of 3
F27A D30Y V99D	4.66	2 of 3
D30N I58E D107V	no signal	0 of 3
N54K V99W R101N	6.20	1 of 3
Y32H N54P	4.83	2 of 3
D31R N54R S55D	4.41	1 of 3
A33F G100F F106N	4.69	2 of 3
I51R S52W S57K	5.99	1 of 3
A33S Y105G D107A	2.42	3 of 3
D31E A61N K65D	no signal	0 of 3
G56L S57E D62T	0.44	3 of 3
D31W V99E Y105H	0.24	3 of 3
Y32W G50K I51L	5.41	2 of 3
H35N S57T V64S	3.86	2 of 3
D31H A61C D107R	no signal	0 of 3

Continued, with the values leading:

mean log10 Kd (nM)	replicates with signal	changes
0.96	3 of 3	I58Q A61S R101S
no signal	0 of 3	S52D G103M Y108K
1.48	3 of 3	D31G G104A
5.69	1 of 3	Y32S A33Y D107I
4.00	1 of 3	S52A W53D N54L
no signal	0 of 3	G50Y F106N Y108W
no signal	0 of 3	I51A V99N G100P
6.15	1 of 3	H35S V64L V99P
no signal	0 of 3	T28K N54T V64G
no signal	0 of 3	W53H I58W G103H
4.87	1 of 3	T28I A33F V64I
5.07	3 of 3	A33H Y60A
no signal	0 of 3	F29Y G59S G100F
4.62	3 of 3	I51V S57F K65I
4.24	1 of 3	Y32G D62F S63L
4.80	1 of 3	F29T Y32N G103F
4.76	3 of 3	I51L W53P Y105D
no signal	0 of 3	D31T A33H G100V
4.78	2 of 3	D30W Y108R
no signal	0 of 3	G26L S52W W53G
4.70	1 of 3	A61G D107Q
no signal	0 of 3	G50L G56V V64N
5.09	2 of 3	T28V G50R N54F
2.69	1 of 3	T28Y G102A
no signal	0 of 3	D31H W53V G102K
4.67	1 of 3	G26E D62T K65M
4.72	3 of 3	I58W G59C S63A
no signal	0 of 3	G26Q I51E D107H
no signal	0 of 3	H35I S55K G102K
no signal	0 of 3	G56M G59P R101S
3.29	1 of 3	G26P Y108I
2.16	3 of 3	V99E G102Y G103W
no signal	0 of 3	I51R S55P K65C
no signal	0 of 3	G59W V99H G103W
1.02	3 of 3	K65D D107E
5.12	1 of 3	Y32F H35V S52M

The 5 strongest on average among those seen in every replicate, once more:

| changes | mean log10 Kd (nM) | replicates with signal |
|---|---|---|
| D31W V99E Y105H | 0.24 | 3 of 3 |
| G56L S57E D62T | 0.44 | 3 of 3 |
| D31N G56H Y108C | 0.82 | 3 of 3 |
| I58Q A61S R101S | 0.96 | 3 of 3 |
| K65D D107E | 1.02 | 3 of 3 |